The numbers were not newly measured in publication PMC3877047, “Milligram Quantities of Homogeneous Recombinant Full-Length Mouse Munc18c from Escherichia coli Cultures” (PLoS ONE, 2013), which cites them from elsewhere.

Protein sequences, listed by entry. Tags and fused reporters are not part of them. Lines headed by an entry give the natural chain unless they say otherwise; changes in a name come on top. Residues count along the entry.
UniProt P70452, 1-275: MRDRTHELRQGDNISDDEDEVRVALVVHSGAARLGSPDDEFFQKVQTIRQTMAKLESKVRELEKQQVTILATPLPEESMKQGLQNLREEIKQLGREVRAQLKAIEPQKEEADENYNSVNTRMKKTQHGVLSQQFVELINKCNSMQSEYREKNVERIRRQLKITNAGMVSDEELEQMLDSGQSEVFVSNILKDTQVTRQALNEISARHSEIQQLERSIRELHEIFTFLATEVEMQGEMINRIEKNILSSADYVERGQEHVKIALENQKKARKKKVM
UniProt Q60770: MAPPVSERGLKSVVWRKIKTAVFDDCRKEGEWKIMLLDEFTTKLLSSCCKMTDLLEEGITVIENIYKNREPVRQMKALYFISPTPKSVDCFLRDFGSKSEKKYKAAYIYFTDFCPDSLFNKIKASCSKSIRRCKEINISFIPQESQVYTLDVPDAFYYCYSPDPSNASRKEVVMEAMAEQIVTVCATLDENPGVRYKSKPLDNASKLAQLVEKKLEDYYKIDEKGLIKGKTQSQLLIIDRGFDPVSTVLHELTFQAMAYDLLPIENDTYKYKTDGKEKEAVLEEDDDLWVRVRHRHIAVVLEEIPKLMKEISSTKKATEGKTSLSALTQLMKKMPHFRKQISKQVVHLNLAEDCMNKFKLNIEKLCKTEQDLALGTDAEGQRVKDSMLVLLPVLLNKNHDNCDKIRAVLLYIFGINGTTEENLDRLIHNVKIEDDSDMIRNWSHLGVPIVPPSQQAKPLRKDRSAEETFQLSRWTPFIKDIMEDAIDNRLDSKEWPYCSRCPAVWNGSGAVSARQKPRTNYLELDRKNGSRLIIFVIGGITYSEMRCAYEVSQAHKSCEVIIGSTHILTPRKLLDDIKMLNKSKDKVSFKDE

pKd: −log10 of the molar value.

This data set has as its target Syntaxin 4 1-275 (Mus musculus) (UniProt P70452). The data set is described as follows: ITC. The conditions noted are these: cited from earlier work.

In general, pKd refers to −log10 of the Kd, conventionally taken in molar units. On to Munc18c (from UniProt Q60770), for which the pKd was 7.02.
